Data published in ChEMBL document CHEMBL1127840, “Conformational analysis of 5-lipoxygenase inhibitors: role of the substituents in chiral recognition and on the active conformations of the (methoxyalkyl)thiazole and methoxytetrahydropyran series” (J Med Chem, 1994).
pIC50: −log10 of the molar value.

Key:
[1] = biological target: T1, Polyunsaturated fatty acid 5-lipoxygenase (Homo sapiens, UniProt P09917); test: Inhibition of 5-lipoxygenase from human whole blood; type: tissue-based
T1 sequence (P09917 whole entry): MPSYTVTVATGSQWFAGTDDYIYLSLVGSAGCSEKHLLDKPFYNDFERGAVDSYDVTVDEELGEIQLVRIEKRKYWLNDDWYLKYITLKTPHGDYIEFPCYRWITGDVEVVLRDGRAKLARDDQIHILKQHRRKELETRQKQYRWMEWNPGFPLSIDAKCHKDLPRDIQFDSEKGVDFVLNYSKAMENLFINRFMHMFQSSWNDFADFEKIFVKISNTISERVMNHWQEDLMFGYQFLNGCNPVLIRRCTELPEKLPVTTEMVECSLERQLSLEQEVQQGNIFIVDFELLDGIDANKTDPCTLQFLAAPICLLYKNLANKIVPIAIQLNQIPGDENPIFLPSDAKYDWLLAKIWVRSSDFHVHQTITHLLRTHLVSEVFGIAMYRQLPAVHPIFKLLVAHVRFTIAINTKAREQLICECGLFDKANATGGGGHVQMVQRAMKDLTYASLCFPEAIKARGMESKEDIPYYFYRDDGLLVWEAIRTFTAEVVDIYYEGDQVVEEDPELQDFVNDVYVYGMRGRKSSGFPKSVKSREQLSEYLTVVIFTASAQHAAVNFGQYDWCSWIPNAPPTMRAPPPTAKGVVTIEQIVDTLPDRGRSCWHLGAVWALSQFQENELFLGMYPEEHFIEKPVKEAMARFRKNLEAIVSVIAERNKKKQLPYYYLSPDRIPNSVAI
Procedure, shortened: (§1)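 Eicosanoid generation measured to assess 5-LO inhibition. IC50 from iterative four-parameter curve fit. Data reported as mean ± SE with the number of determinations; where only two runs were made, both values are given.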

[2] = biological target: T1, Polyunsaturated fatty acid 5-lipoxygenase; test: Inhibitory concentration against 5-lipoxygenase from human whole blood; type: tissue-based; procedure, shortened: as §1

| pIC50 [1] | pIC50 [2] | Compound |
| --- | --- | --- |
| 5.64 | – | Cn1c(=O)ccc2cc(COc3cccc(C4(CO)CCOCC4)c3)ccc21 |
| – | 7.15 | CC[C@](COC)(OC)c1cc(F)cc(OCc2ccc3c(ccc(=O)n3C)c2)c1 |
